Source: PubChem (National Center for Advancing Translational Sciences (NCATS))
Nrf2 block: blocks Nrf2 signaling. AID 504444. A549 ARE-Fluc reporter, luciferase luminescence, 18-24 h. Potency, µM (top dose mostly 46 µM), inactives show top-dose activity change, negative = inhibition, actives largely listed as inhibitors. actives 2.1% (n = 360,000); note: potency is the fitted concentration of half-maximal effect; % is set by controls: 0 for no effect and ±100 for the full control effect; nearly all actives have a fitted effect of over 60% in size
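A549 ARE_Fluc cells (5000/well, 5% FBS OPTI-MEM) pre-incubated 2 h, then treated with compounds 18-24 h at 37C/5% CO2 in concentration-response. CellTiter-Fluor viability read first; BugLite luciferase luminescence after 15 min at room temperature gives Nrf2 activity.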
A549 viability: A549 cytotoxicity, counter-screen for Nrf2 inhibitors. A549 ARE-Fluc cells, CellTiter-Fluor viability, 18-24 h. Potency, µM (highest dose often 46 µM), without a hit: at the top dose activity change, negative = cytotoxicity, actives largely listed as inhibitors. actives 0.16% (n = 390,000). AID 504648; note: potency is the fitted concentration of half-maximal effect; % is set by controls: 0 for no effect and ±100 for the full control effect
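Cytotoxicity counterscreen: CellTiter-Fluor fluorescence was measured in A549 ARE_Fluc cells after 18-24 h of compound exposure in a concentration series. The subsequent BugLite luminescent read reports ARE-luciferase activity.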
Nrf2 activator: activators of Nrf2 (ARE) signaling | AREc32 ARE-luciferase reporter (MCF7-derived line), luminescence, 24 h | Potency, µM (doses to about 46.1 µM), for inactives: at the top dose activation, actives largely listed as activators | actives 0.31% (n = 410,000) | AID 624171; note: potency is the fitted concentration of half-maximal effect; % of control where 0% means no effect; nearly all actives have a fitted effect of over 65% in size
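Cells of the AREc32 ARE-luciferase line are plated in OPTI-MEM containing 5% FBS and left overnight at 37 deg C. Compounds are pinned in, incubation continues 24 hr, and firefly luciferase signal is then measured.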
PI4K2A inh: PI4K2A (human) kinase inhibition. purified PI4K2A, ADP-Glo luminescence, 1 h; active compounds read low. actives 0.13% (n = 420,000). activity change, negative = inhibition, % at 76.9 µM; in the data active = activity change below about -50%; inconclusive = mostly about -30% to -49%;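 note: -100% = wells without enzyme as full effect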
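ADP-Glo luminescence measured ADP generated by PI4K2A enzyme (4 ug/mL before mixing) with 1.2 mM PI substrate (pre-mix) and 300 microM ATP (pre-mix). Tris pH7.5 buffer with MgCl2, Triton X-100; 1 h reaction at ambient temperature.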
GALK inhibitor: galactokinase (human) inhibition | Potency, µM (titrated, usually from 57.5 µM), for the others: at the top dose activity change, negative = inhibition, usual class: inhibitors | Purified GALK, Kinase-Glo residual ATP luminescence | P51570 | actives 0.007% (n = 270,000); note: potency is the fitted concentration of half-maximal effect; % is set by controls: 0 for no effect and ±100 for the full control effect
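Luminescence from leftover ATP (Ultra-Glo luciferase/luciferin) served as read-out after a 1 h room-temperature reaction of 5 nM GALK with 35 uM ATP and 100 uM galactose.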
miR-21 FLuc: miR-21 reporter, rising signal. HeLa miR-21 FLuc reporter, luciferase, 48 h. Potency, µM (titrated, usually from 38.3 µM), without a hit: at the top dose reporter change, positive = more light. 340,000 tested, under 10 active. AID 2288; active = well fitted rising curve with a large enough effect; inconclusive = small, poorly fitted or top-dose-only effect; inactive = no such curve, though single readings can be large or run the other way;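 also: % of control where 0% means no effect; miR-21 action dims this reporter so a rising signal means less miR-21 action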
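HeLa miR-21-FLuc reporter line, endogenous miR-21; 2000 cells/well in DMEM/10% FBS; compound titration up to ~40uM final, 48 h, 37 degree Celsius; luciferase detection reagent, 15 min lysis, CCD luminescence.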
Numbers without * were called inactive; ? = inconclusive; · = no result. In the library only some 2.2% were active in any assay of this set; here they are far more common. Unless noted, calls come from the whole dose curve; as a rule, active = well fitted curve in the direction sought with a large enough effect; inconclusive = small, poorly fitted or top-dose-only effect, or another doubt; inactive = no such curve, though single readings can be large; an effect the other way counts as inactive or inconclusive.

No. | canonical_smiles | Nrf2 block | A549 viability | Nrf2 activator
1 | Cc1ccc([N+](=O)[O-])cc1-c1[nH]c(-c2ccc(O)c(O)c2)nc1-c1ccccc1 | 21µM* | ? | 3%
2 | N#CCC[C@@H]1CC[C@]2(CCCN(C(=O)c3cccnc3)C2)O1 | · | · | ·
3 | O=C1OC(/C(=C\Nc2cc(Cl)ccc2O)[N+](=O)[O-])c2ccccc21 (stereo not drawn) | ? | -8% | 11µM*
4 | Cc1noc(C)c1COC(=O)c1ccccc1NC(=O)Cc1ccccc1 | 15µM* | · | 2%
5 | c1ccc(-c2cc3c(-n4cccc4)ncnc3o2)cc1 | 16% | -3% | 3.2µM*
6 | c1ccc(Oc2ncnc3oc(-c4ccccc4)cc23)cc1 | · | -2% | 2%
7 | COc1ccc(C(=O)N[C@@H]2CC[C@@]34CCCN3C(=O)CCC[C@H]4[C@H]2C)cc1 | · | · | ·
8 | CC(C)c1nc2sc3ccccc3c(=O)c2c(=O)n1Cc1ccccc1 | 26µM* | -7% | 0%
9 | Cc1cccc(CCNC(=O)c2ccc(Sc3ccccc3Cl)c([N+](=O)[O-])c2)c1 | · | · | ·
10 | CC(C)(C)OC(=O)Cc1nnc(C(C(=O)OCc2ccccc2)c2ccccc2)s1 (stereo not drawn) | 8% | 2% | ·
11 | O=C(/C=C/c1ccccc1)Nc1nc(-c2ccncc2)cs1 | 13µM* | ? | 7%
12 | O=C(Nc1nc(-c2ccncc2)cs1)C1c2ccccc2Oc2ccccc21 | 15µM* | ? | 4%
13 | Cc1nc(NC(=O)/C=C/c2ccccc2)n[nH]1 | -2% | -13% | 7.1µM*
14 | N[C@H](C(=O)O)[C@H](Cc1ccccc1)C(=O)O | · | · | ·
15 | COc1ccc(Cn2cc(CN3[C@H](CC(C)C)COc4cc(Br)ccc4S3(=O)=O)nn2)cc1 | · | · | ·

No. | PI4K2A inh | GALK inhibitor | miR-21 FLuc
1 | -5 | -3% | 6%
2 | 0 | · | ·
3 | -10 | 0% | 9%
4 | 1 | 12% | -8%
5 | 4 | 1% | -26%
6 | -3 | -2% | -4%
7 | -4 | · | ·
8 | 2 | 0% | -2%
9 | -4 | · | ·
10 | · | · | ·
11 | -2 | 12% | -1%
12 | -1 | 1% | -1%
13 | 11 | -2% | 0%
14 | -1 | · | ·
15 | -8 | · | ·

Further compounds
No. | canonical_smiles | Nrf2 block | A549 viability | Nrf2 activator
16 | COC(=O)c1ccc(NC(=O)c2cccc(N3C(=O)C4C5C=CC(C6CC56)C4C3=O)c2)cc1 (stereo not drawn) | 21µM* | ? | 0%
17 | O=C(Nc1ccccc1)c1cccc(N2C(=O)C3C4C=CC(C5CC45)C3C2=O)c1 (stereo not drawn) | 21µM* | -11% | 0%
18 | O=C(Nc1ccc(F)cc1)c1cccc(N2C(=O)C3C4C=CC(C5CC45)C3C2=O)c1 (stereo not drawn) | 15µM* | -12% | 0%
19 | O=C(Nc1ccccc1)c1cccc(N2C(=O)C3C4C=CC(C4)C3C2=O)c1 (stereo not drawn) | -16% | -3% | 1%
20 | O=C(Nc1ccc(F)cc1)c1cccc(N2C(=O)C3C4C=CC(C4)C3C2=O)c1 (stereo not drawn) | -21% | -6% | 0%
21 | CCOc1ccc(-n2c(SCC(=O)Nc3ccccc3-c3ccccc3)nnc2-c2cccs2)cc1 | · | · | ·
22 | CN(C(=O)c1sc2nc(N3CCOCC3)c3c(c2c1N)CCCC3)c1ccccc1 | 16µM* | 1% | 1%
23 | O=S(=O)(c1ccc2c(c1)OCCO2)N1CCN(c2nc(-c3ccccc3)nc3ccccc23)CC1 | ? | 3% | ·
24 | O=C1CCC[C@H]2C[C@H](NCc3ccccc3F)CC[C@]23CCCN13 | · | · | ·
25 | O=C(CSc1nnc(-c2ccc(Cl)cc2)n1-c1ccccc1)NN=Cc1c[nH]c2ccccc12 | · | · | ·
26 | CCc1cccc(C)c1NC(=O)CCCSc1nc2ccccc2s1 | ? | 0% | 3%
27 | CCc1cccc(CC)c1NC(=O)C1SC(=Nc2ccccc2C)C(c2nc3ccccc3s2)=C1N (stereo not drawn) | 15µM* | -22% | 1%
28 | Cc1ccc(CSc2nnc(-c3n[nH]c4c3CCC4)n2N)cc1 | · | · | ·
29 | Cc1ccccc1C(=O)NC(=S)Nc1ccc(S(=O)(=O)N2CCOCC2)cc1 | 13µM* | 3% | -1%
30 | O=S(=O)(c1ccc(NC(=S)N/N=C/c2c3ccccc3cc3ccccc23)cc1)N1CCOCC1 | 9.2µM* | -7% | 5%

No. | PI4K2A inh | GALK inhibitor | miR-21 FLuc
16 | 0 | -4% | -14%
17 | 1 | 5% | 14%
18 | 1 | 6% | 19%
19 | 2 | 4% | -5%
20 | -3 | -5% | -1%
21 | 0 | · | ·
22 | 5 | 2% | 17%
23 | · | · | ·
24 | -3 | · | ·
25 | -5 | · | ·
26 | 5 | 2% | 4%
27 | 10 | 1% | 12%
28 | 3 | · | ·
29 | -1 | 0% | -3%
30 | -2 | 0% | ?

Profiles, looked up by structure. Values in the order: Nrf2 block, A549 viability, Nrf2 activator, PI4K2A inh, GALK inhibitor, miR-21 FLuc
O=C(Nc1ccc(F)cc1)c1cccc(N2C(=O)C3C4C=CC(C4)C3C2=O)c1 (stereo not drawn) reads -21%, -6%, 0%, -3, -5%, -1%
O=S(=O)(c1ccc(NC(=S)N/N=C/c2c3ccccc3cc3ccccc23)cc1)N1CCOCC1 reads 9.2µM*, -7%, 5%, -2, 0%, ?

Other entries.
No. | canonical_smiles | Nrf2 block | A549 viability | Nrf2 activator
31 | O=[N+]([O-])c1cccc(-c2cc(C(F)(F)F)n3nc(-c4ccccc4)cc3n2)c1 | 1% | -1% | 0%
32 | O=[N+]([O-])c1ccc(O)c(-c2ccnc3cc(-c4ccccc4)nn23)c1 | 18µM* | 16µM* | 9%
33 | CC(C)C(C)NC(=O)COc1ccc(Sc2ccc(OCC(=O)NC(C)C(C)C)cc2)cc1 (stereo not drawn) | 21µM* | -14% | 0%
34 | Cc1cccc2sc(N(Cc3cccnc3)C(=O)CCS(=O)(=O)c3ccccc3)nc12 | · | 4% | 22µM*
35 | Cc1cccc2sc(N(Cc3cccnc3)C(=O)CCOc3ccccc3)nc12 | · | 18% | 6%
36 | CN1C(=O)CC(C)(c2ccccc2)C1=O (stereo not drawn) | · | · | ·
37 | COC(=O)[C@]12C[C@H](CC(=O)N3CCCCC3)C(=O)N(Cc3ccc4c(c3)OCO4)C1=C[C@H](C(C)C)O[C@@H]2C1CC1 | · | · | ·
38 | CCN(CCO)c1ccc(N=Nc2cc(C)[nH]n2)cc1 | ? | 9.2µM* | -3%
39 | COCCCNC(=O)CN1C(=O)C2CCCCN2C(=O)c2ccccc21 (stereo not drawn) | · | · | ·
40 | CN1C(=O)C(C)(C)c2cc(S(=O)(=O)NCc3ccc(C(=O)Nc4ccc(Cl)cc4)cc3)ccc21 | 18µM* | -15% | 5%
41 | CCc1ccc(NC(=O)c2ccc(CNS(=O)(=O)c3ccc4c(c3)C(C)(C)C(=O)N4C)cc2)cc1 | 27% | -13% | 6%
42 | CCS(=O)(=O)c1cccc(C(=O)N2CCN(c3nc4c(C)ccc(Cl)c4s3)CC2)c1 | 12µM* | -18% | -1%
43 | CCOc1ccc(/C=N/NC(=O)c2[nH]ncc2Br)c(O)c1 | 2% | -8% | -2%
44 | COc1ccc(C2C(C(=O)N3CCN(C=O)CC3)CC(=O)N2c2ccc(OC)cc2)cc1 (stereo not drawn) | · | · | ·

No. | PI4K2A inh | GALK inhibitor | miR-21 FLuc
31 | 6 | 1% | 6%
32 | -1 | · | 26%
33 | -1 | 1% | 0%
34 | 0 | · | 19%
35 | -59* | · | 0%
36 | 0 | · | ·
37 | -2 | · | ·
38 | -4 | 8% | 28%
39 | 2 | · | ·
40 | 4 | · | ?
41 | -2 | · | ?
42 | -2 | · | ?
43 | -75* | 23% | -14%
44 | -3 | · | ·

Looked up by compound from the entries so far:
No. | canonical_smiles | Nrf2 block | A549 viability | Nrf2 activator
2 | N#CCC[C@@H]1CC[C@]2(CCCN(C(=O)c3cccnc3)C2)O1 | · | · | ·
41 | CCc1ccc(NC(=O)c2ccc(CNS(=O)(=O)c3ccc4c(c3)C(C)(C)C(=O)N4C)cc2)cc1 | 27% | -13% | 6%

No. | PI4K2A inh | GALK inhibitor | miR-21 FLuc
2 | 0 | · | ·
41 | -2 | · | ?
